Laboratory results from patent publication US20240199555A1, “APPLICATIONS OF BIASED LIGANDS OF THE SEROTONIN 5-HT7 RECEPTOR FOR THE TREATMENT OF PAIN, MULTIPLE SCLEROSIS AND THE CONTROL OF THERMOREGULATION” (Centre National de la Recherche Scientifique, priority 2021, published 2024).

Chains of the proteins cited; added tags and fusions are not shown. Residues count along the entry.
UniProt P28223, whole entry: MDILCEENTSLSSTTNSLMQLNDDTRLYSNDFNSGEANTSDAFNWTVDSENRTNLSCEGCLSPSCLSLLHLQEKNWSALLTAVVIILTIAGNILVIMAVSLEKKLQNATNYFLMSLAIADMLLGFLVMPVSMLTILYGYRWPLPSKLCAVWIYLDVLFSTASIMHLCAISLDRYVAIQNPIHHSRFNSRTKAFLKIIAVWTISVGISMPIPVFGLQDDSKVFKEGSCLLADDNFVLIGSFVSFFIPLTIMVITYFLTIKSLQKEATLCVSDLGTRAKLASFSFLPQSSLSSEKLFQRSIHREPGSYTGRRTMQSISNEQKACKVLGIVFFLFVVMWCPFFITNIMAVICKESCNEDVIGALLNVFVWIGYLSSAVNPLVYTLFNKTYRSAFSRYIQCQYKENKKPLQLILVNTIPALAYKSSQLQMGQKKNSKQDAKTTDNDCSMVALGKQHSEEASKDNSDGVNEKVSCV
UniProt P28335, 33-458 limits assumed: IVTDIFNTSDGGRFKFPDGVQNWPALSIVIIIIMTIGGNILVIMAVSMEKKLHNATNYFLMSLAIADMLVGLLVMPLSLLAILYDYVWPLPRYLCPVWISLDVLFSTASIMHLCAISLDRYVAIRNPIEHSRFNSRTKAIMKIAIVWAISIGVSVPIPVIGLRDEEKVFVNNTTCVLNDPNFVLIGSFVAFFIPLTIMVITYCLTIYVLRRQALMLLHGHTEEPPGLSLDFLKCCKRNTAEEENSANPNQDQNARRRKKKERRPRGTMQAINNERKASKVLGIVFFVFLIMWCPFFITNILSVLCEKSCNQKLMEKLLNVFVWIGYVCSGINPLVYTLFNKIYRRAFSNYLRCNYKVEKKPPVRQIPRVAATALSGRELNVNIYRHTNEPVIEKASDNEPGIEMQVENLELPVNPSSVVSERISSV
UniProt P08908, whole entry: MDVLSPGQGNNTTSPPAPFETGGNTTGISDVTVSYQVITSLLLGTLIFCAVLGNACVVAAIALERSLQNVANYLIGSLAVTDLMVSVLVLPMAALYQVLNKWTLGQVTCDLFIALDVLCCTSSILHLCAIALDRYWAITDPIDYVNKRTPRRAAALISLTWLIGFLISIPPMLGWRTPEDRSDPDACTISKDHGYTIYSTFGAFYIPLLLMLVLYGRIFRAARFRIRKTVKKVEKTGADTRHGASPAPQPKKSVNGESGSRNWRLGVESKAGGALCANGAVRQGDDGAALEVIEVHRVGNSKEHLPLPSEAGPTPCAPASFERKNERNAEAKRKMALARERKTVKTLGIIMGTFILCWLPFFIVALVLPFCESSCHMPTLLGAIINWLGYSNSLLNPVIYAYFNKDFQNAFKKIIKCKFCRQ

Tests used:
human 5-HT2A receptor = human 5-HT2A receptor (Homo sapiens (Human), UniProt P28223); test: Radioligand binding competition, 5-HT2A; conditions: selectivity panel; for IC50: read-out: RLB 5-HT2A IC50; for Ki: read-out: RLB 5-HT2A Ki
Protocol: (§1) FIG. 14: Testing of 8 molecules for radioligand binding competition activity on recombinant human 5-HT1A, 5-HT2A, 5-HT2Cedited, 5-HT6, 5-HT7 and D2(long) receptors using filtration binding assays.
(§2) Radioligand Binding experiments were conducted with Epics Therapeutics membrane preparations. Receptor accession numbers, cellular background and reference compounds are shown in this table.
(§3) The new compounds have been tested by radioligand binding competition activity at the human 5-HT1A (FAST-0500B), 5-HT2A (FAST-0505B), 5-HT2Cedited (FAST-0507B), 5-HT6 (FAST-0509B), 5-HT7a (FAST-05111B) and D2(long) (FAST-0101B) receptors at seven (7) concentrations, in duplicate. […] Reference values thus obtained for the test were compared to historical values obtained from the same receptor and used to validate the experimental session. For replicate determinations, the maximum variability tolerated in the test was of +/−20% around the average of the replicates.
(§4) Dose-response data from test compounds were analyzed with XLfit (IDBS) software using nonlinear regression applied to a sigmoidal dose-response model and the following equation: • XL Fit fit Model 203: 4 Parameter Logistic Model • A: Bottom • B: TOP • C: LogEC50 • D: Hill

[1] = target: human 5-HT2Cedited receptor (Homo sapiens, UniProt P28335); test: Radioligand binding competition, 5-HT2Cedited; conditions: selectivity panel; for IC50: read-out: RLB 5-HT2Cedited IC50; for Ki: read-out: RLB 5-HT2Cedited Ki
human 5-HT1A receptor = human 5-HT1A receptor (Homo sapiens (Human), UniProt P08908); test: Radioligand binding competition, 5-HT1A; conditions: selectivity panel; for IC50: read-out: RLB 5-HT1A IC50; for Ki: read-out: RLB 5-HT1A Ki
Protocol: as §1, §2, §3, §4

| Structure (SMILES) | IC50 (human 5-HT2A receptor) | Ki (human 5-HT2A receptor) | IC50 [1] | Ki [1] | IC50 (human 5-HT1A receptor) | Ki (human 5-HT1A receptor) |
| --- | --- | --- | --- | --- | --- | --- |
| O=c1[nH]c2ccccc2n1CCCCCN1CCN(c2ccc(Cl)c(Cl)c2)CC1 | 38.5 nM | 6.3 nM | 196 nM | 32 nM | 32.8 nM | 16.4 nM |
| Cc1ccc(N2CCN(CCCCCn3c(=O)[nH]c4ccccc43)CC2)cc1 | 47.5 nM | 7.8 nM | 1250 nM | 205 nM | 482 nM | 241 nM |
